Laboratory results published in US6506576B2 (priority 2001, dated 2003).

Tested on: non-neuronal cells in cerebellar cultures
Assay: Inhibition of non-neuronal cell proliferation in primary cerebellar cultures (visual inspection, staining)
Type: cell-based, rat
Conditions: 10 μM AraC, NB-B27 or GCSF
Method: To inhibit proliferation of non-neuronal cells, a final concentration of 10 μM AraC was added to cultures after 24 hour in vitro.
Based on the calculated cell numbers, cerebellar cells were serially diluted in an appropriate volume of culture media and seeded into flat-bottom 96-well tissue culture plates pre-coated with poly-L-lysine (Becton Dickinson, Bedford, Mass.). The numbers of cerebellar cells seeded ranged from 6,250 to 400,000 cells per well (0.32 cm^2) in a final volume of 200 μl. Cultures were maintained in a humidified incubator in 5% CO2 at 37° C. After 24 hours in culture, a final concentration of 10 μM cytosine β-D-arabinofuranoside (AraC; Sigma) was added to each well to inhibit proliferation of non-neuronal cells.
Cerebellar cells were prepared as described above, seeded at 5×10^5 cells per well (0.32 cm^2) poly-L-lysine coated 4-well chamber slides, and cultured without added serum in GCSF or NB-B27 supplement with or without 10 μM AraC. After 7-30 day in vitro, cultures were washed 3 times with phosphate buffered saline (PBS) and fixed for 20-30 minutes with 4% paraformaldehyde in 0.1M sodium phosphate buffer (pH 7.4; PB). Following fixation, cells were washed 3 times with PBS, and either stained with 1% methylene blue (Sigma) in deionized water for 5 minutes and destained with deionized water or permeablized for immunostaining with 0.2% Triton X-100 in PBS. […]

Substance: cytosine β-D-arabinofuranoside [AraC]
- loss of granule cell viability in presence of anti-mitotic agent: without a detectable loss of granule cell viability
